A selection: hits, their analogues and other compounds. The true share with any hit is near 0.73%.
Yeast UUG start – modulators of start codon recognition fidelity in yeast | S. cerevisiae UUG-firefly luciferase reporter, luminescence/redox ratio | activity score, % at 18.7 µM | 350,000 tested, 0.13% active;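 active = replicate mean at a twofold rise or more, about +100% in these data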;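 also: firefly luciferase made from a UUG start codon reports start codon fidelity; reporter light over untreated wells divided by growth signal over untreated wells; some hits fall short of that in this replicate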
RAD52 anneal inh – inhibitors of human RAD52 DNA annealing; recombinant RAD52 DNA annealing, FRET fluorescence; AID 651710; 0.46% of 360,000 active; P43351; inhibition, % at 18.7 µM;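 active means every replicate showing at least 50% inhibition; inconclusive means mean inhibition at least 50% but not in every replicate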
Xi reactivation – X-chromosome reactivation activator; XiGFP mouse fibroblasts, % GFP-positive cells imaging, 3 d; cells co-treated with 5-aza-dC sensitizer; scaled so ellipticine positive control = 100%; activation, % at 7.58 µM; 0.055% of 360,000 active;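 active means mean normalized replicate activation at least 10% and every replicate at or above 10%; inconclusive means only one of the two criteria met; inactive means mean below 10% and not all replicates reach 10%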
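System: 68-5-11 XiGFP fibroblast line; Timing: 3 days compound exposure; Compound dosing: one concentration, pinned; Benchmarks: positive control ellipticine, 6 µM final; Buffer or medium: DMEM containing 5-aza-dC.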
RAD54 inh – blocks human RAD54 Holliday junction branch migration. Q92698. inhibition, % at 10.4 µM. 0.14% of 360,000 active. AID 602329. FAM/BHQ fluorescence;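 active means mean normalized replicate activity at least 40 and at least half of replicates scoring 40 or more; inconclusive means only one of the two criteria met; inactive means mean below 40 and under half of replicates reaching 40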;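 further: inhibitors cause a drop in the FAM fluorescence signal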
E-selectin induc – induces E-selectin expression in human endothelial cells. 0.37% of 260,000 active. activation, % at 7.58 µM. HUVEC E-selectin immunofluorescence imaging; normalized: neutral wells 0, TNF-alpha wells 100;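 active means mean E-selectin-positive cell signal at least 10% of the positive control, reached in at least 60% of replicates, without over 20% cell loss; inconclusive means no rule given, readout overlaps actives, possibly toxicity-flagged; inactive means the rest, including those meeting only one limit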
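System: HUVEC / Compound: single concentration / Signal: immunofluorescence imaging / Read-out: percent E-selectin-positive cells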
Numbers stand for hits; n = inactive; u = inconclusive; x = no result given; ! = not active in a repeat.

SMILES	Yeast UUG start	RAD52 anneal inh	Xi reactivation	RAD54 inh	E-selectin induc
CN(Cc1ccsc1)C(=O)CCc1nnc(CCCc2ccccc2)o1	n	n	x	n	27
Cc1ccccc1-c1ccc([C@H]2[C@H]3CN(S(=O)(=O)Cc4ccccc4)CCCCN3[C@H]2CO)cc1	n	n	n	n	n
Cc1ccccc1S(=O)(=O)N1CCCCN2[C@H](CO)[C@H](c3ccc(-c4ccccc4)cc3)[C@H]2C1	n	73	x	n	x
Cc1ccccc1-c1ccc([C@H]2[C@@H](CO)N3CCCCN(S(=O)(=O)Cc4ccccc4)C[C@H]23)cc1	n	69	n	n	n
Cc1ccccc1S(=O)(=O)N1CCCCN2[C@H](CO)[C@@H](c3ccc(-c4ccccc4)cc3)[C@H]2C1	n	70	x	n	x
Cc1ccccc1S(=O)(=O)N1CCCCN2[C@@H](CO)[C@@H](c3ccc(-c4ccccc4)cc3)[C@@H]2C1	n	n	x	n	x
O=C(C[C@H]1CC[C@H](NS(=O)(=O)c2ccc(F)cc2)[C@H](CO)O1)NCc1ccncn1	n	n	n	n	n
COc1ccc(N2CCN(C(=O)c3cccc(NC4=NC5CS(=O)(=O)CC5S4)c3)CC2)cc1 (stereo unspecified)	n	n	n	n	53
COc1ccc(C#Cc2ccc([C@H]3[C@H]4CN(C)CCCCN4[C@H]3CO)cc2)cc1	n	52	n	n	n
COCC(=O)N1CCCCN2[C@H](C1)[C@@H](c1ccc(C#Cc3ccc(OC)cc3)cc1)[C@@H]2CO	n	n	n	n	n
COc1ccc(C#Cc2ccc([C@H]3[C@H](CO)N4CCCCN(C)C[C@@H]34)cc2)cc1	n	63	n	n	n
COCC(=O)N1CCCCN2[C@@H](CO)[C@H](c3ccc(C#Cc4ccc(OC)cc4)cc3)[C@@H]2C1	n	n	n	n	n
C[C@H]1CCCCO[C@@H](CN(C)C(=O)NC2CCCCC2)[C@@H](C)CN([C@@H](C)CO)C(=O)c2cc(NS(=O)(=O)c3cccs3)ccc2O1	n	n	n	n	n
O=[N+]([O-])c1ccc(N2N=C(c3ccccc3)CC2c2ccccc2O)cc1 (stereo unspecified)	x	n	32	x	x
C(=C\c1ccc(C2[C@@H]3CN(Cc4cccnc4)C[C@H]2N3)cc1)/c1ccccc1 (stereo partly specified)	x	70!	n	x	n
c1cncc(CN2C[C@@H]3N[C@H](C2)C3c2ccc(-c3cccnc3)cc2)c1 (stereo partly specified)	x	n	n	x	n
C/C=C/c1ccc(C2[C@@H]3CN(Cc4ccc5c(c4)OCO5)C[C@H]2N3)cc1 (stereo partly specified)	x	61!	n	x	n
O=S(=O)(c1ccccc1)N1C[C@@H]2N[C@H](C1)C2c1ccc(/C=C/c2ccccc2)cc1 (stereo partly specified)	x	87!	n	x	n
O=S(=O)(c1ccccc1F)N1C[C@@H]2N[C@H](C1)C2c1ccc(/C=C/c2ccccc2)cc1 (stereo partly specified)	x	74!	n	x	n
C[C@H]1CN([C@@H](C)CO)C(=O)c2cc(-c3ccc(C(=O)N(C)C)cc3)cnc2O[C@@H]1CN(C)C(=O)c1cccnc1	n	n	n	n	x
C[C@@H]1CCCCO[C@@H](CN(C)S(C)(=O)=O)[C@H](C)CN([C@H](C)CO)C(=O)c2cc(NC(=O)Nc3ccc(F)cc3)ccc2O1	n	x	n	n	n
O=S(=O)(c1ccccc1F)N1[C@@H]2CNC[C@H]1C2c1ccc(/C=C/c2ccccc2)cc1 (stereo partly specified)	x	52!	n	x	n
CCCCn1c(N)c(N(CC(C)C)C(=O)c2ccc(S(=O)(=O)N3CCCCC3)cc2)c(=O)[nH]c1=O	n	n	n	n	58
CCCC(=O)Nc1ccc2c(c1)OC[C@@H](C)N(C)C[C@H](C)[C@H](OC)CN(C)C2=O	n	n	n	n	n
Cc1cccc(NC(=O)CCCN2C(=O)C(c3ccccc3)Oc3cccnc32)c1C (stereo unspecified)	x	n	n	x	57
SMILES	Yeast UUG start	RAD52 anneal inh	Xi reactivation	RAD54 inh	E-selectin induc
Cc1cccc(C)c1NC(=O)CCCN1C(=O)C(c2ccccc2)Oc2cccnc21 (stereo unspecified)	n	n	n	n	x
O=C(C[C@@H]1CC[C@@H]2[C@H](COC[C@H](O)CN2Cc2ccc(Cl)cc2)O1)Nc1nccs1	n	n	n	n	n
COc1ccc(-c2nc3cc(C)c(Br)c(C)n3c2CC(C)(C)C)cc1OC	n	n	n	n	177
Cc1cc2cc(CNC(=O)c3ccc(S(=O)(=O)N4CCCC4)cc3)ccc2n1C	n	n	n	n	u
Cc1cc2cc(CNC(=O)c3ccc(S(=O)(=O)N4CCCCC4)cc3)ccc2n1C	n	n	n	n	82
COc1ccc2nc(C)cc(NCCN3CCOCC3)c2c1	n	n	n	n	n
COc1ccc2nc(C)cc(NCc3ccc(F)cc3)c2c1	n	n	97	n	n
COc1ccc(/C=N/Nc2cc(C)nc3ccc(OC)cc23)c(OC)c1	n	88	n	95	n
C[C@@H]1CCCCO[C@H](CN(C)S(=O)(=O)c2ccc(Cl)cc2)[C@H](C)CN([C@H](C)CO)C(=O)c2cc(NC(=O)C3CCCCC3)ccc2O1	n	n	n	n	n
C[C@H]1CN([C@@H](C)CO)C(=O)c2cc(C#Cc3cccc(F)c3)cnc2O[C@H]1CN(C)C(=O)C1CCC1	n	n	n	n	n
C[C@@H]1CN([C@@H](C)CO)C(=O)c2cc(C#CC3CC3)cnc2O[C@@H]1CN(C)C(=O)c1ccccc1	n	n	n	n	97
C[C@@H]1CN([C@H](C)CO)C(=O)c2cc(C#Cc3cccc(F)c3)cnc2O[C@H]1CN(C)C(=O)C1CCC1	n	n	n	n	67
O=C(Nc1cccc(C(F)(F)F)c1)c1cc[n+]([O-])cc1	x	n	n	x	27
CN(C)C1(CNC(=O)C2CCN(S(=O)(=O)c3cc(Cl)ccc3Cl)CC2)CCCCC1	n	n	n	n	70
O=C1c2cccc3c([N+](=O)[O-])ccc(c23)C(=O)N1Cc1cccnc1	x	n	20	x	n
O=C1c2cccc3cccc(c23)C(=O)N1Cc1cccnc1	x	n	n	x	x
Cc1nnc(N2C(=O)c3cccc4c([N+](=O)[O-])ccc(c34)C2=O)s1	n	n	27	n	x
CCNC(=O)C[C@H]1CC[C@@H]2[C@@H](COc3ccc(NC(=O)Nc4ccccc4Cl)cc3C(=O)N2C)O1	n	n	n	n	n
Nc1ccc2c(c1)Cc1cc([N+](=O)[O-])ccc1-2	x	n	n	x	x
CC(O)CN(CC(C)O)c1ccc2c(c1)Cc1cc([N+](=O)[O-])ccc1-2 (stereo unspecified)	n	n	29	n	n
CC1CCCCN1Cc1c(O)ccc2c(=O)c(-c3ccc(Cl)cc3)coc12 (stereo unspecified)	n	n	n	n	x
CC1CCCCN1Cc1c(O)ccc2c(=O)c(-c3ccc(Br)cc3)coc12 (stereo unspecified)	n	n	n	n	40

High-throughput results as filed in PubChem.
